Data on one sequence can be found in paper PMC11910330, “Familial Alzheimer’s disease mutations in amyloid precursor protein impair calcineurin signaling to NMDA receptors” (The Journal of Biological Chemistry, 2024).

In the experiment the test system is human recombinant GST-CaN. Kind of experiment: Peptide/CaN interaction assay (biotinylated peptides on streptavidin beads, GST-CaN pull-down, Western blot). In kind it is binding. The following applies: Fig. 1H, 10 μg N-terminally biotinylated peptide on streptavidin beads, 200 ng GST-CaN, 30 min, 4 °C, mean (n=7; APP-17mer n=3). An excerpt: Recombinant rabbit monoclonal to APP (clone Y188; Abcam cat# ab32136; 1:5000 dilution), rabbit polyclonal to APLP1 (Proteintech cat # 12305-2-AP; 1:1000 dilution), and rabbit polyclonal to APLP2 (Proteintech cat # 15041-1-A; 1:500 dilution) were used to detect native APP family members on western blots or recombinant GFP-tagged APP family members as validation (see Fig. S1). A horseradish peroxidase (HRP)-conjugated goat anti-rabbit antibody (Sigma-Aldrich Cat# 12-348; 1:10,000 dilution) was used as secondary antibody for these western blots, while an HRP-conjugated mouse monoclonal antibody to GFP (Invitrogen cat # MA 515256HRP; 1:1000 dilution) was used to independently verify the expression of GFP or GFP-tagged APP family members. […]
Either PBS with fresh 0.1% Tween-20 and 0.1% bovine serum albumin added or a modified IP buffer (150 mM NaCl, 10 mM Hepes; 5 mM EDTA; pH 7.4) with fresh 0.5% CHAPSO and 0.1% bovine serum albumin was used for these assays. […] Following three washes (400 μl; 5 min each), complexes were eluted in 40 μl 2× Laemmli buffer, and samples were separated by SDS-PAGE and analyzed by Western blotting as above. […]

With MAGPHPVIVITGPHEE [reference compound], the “percent of CaN recovered (signal for each/signal for CaN standard * 40%)” value stood at 60.61%.
